Screening results (PubChem)
Rango complex inh: Rango-importin beta binding inhibition | AID 540263 | 340,000 tested, 0.031% active | Q14974 | Potency, µM (doses to about 92.2 µM) | Rango CFP/YFP FRET sensor + importin beta, 45 min; further: nearly all actives have a fitted effect of over 15% in size
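Inhibition scored from the CFP 486 nm/YFP 530 nm FRET ratio 45 min after adding 0.125 microM importin beta to 50 nM Rango biosensor preincubated 5 min with compound (room temperature, PBS with DTT, Tween-20, BSA). No-importin wells as positive control.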
Rango dissoc inh: inhibitors of RanGTP-induced Rango-importin beta complex dissociation; 340,000 tested, 0.071% active; Biochemical FRET Rango-importin beta, RanGTP-induced dissociation; Potency, µM (top dose mostly 46.1 µM); O95149+P62826; AID 540253; further: nearly all actives have a fitted effect of over 45% in size
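Recombinant Rango FRET biosensor (EYFP–snurportin 1 IBB–cerulean CFP10) at 0.1 uM premixed with 0.25 uM importin beta in PBS, 1 mM DTT, 0.02% Tween-20, 0.1% BSA. Compound added 5 min; RanGTP-RCC1 (0.6 uM Ran, 2 mM GTP, 0.2 uM RCC1) then triggers release, read at 45 min.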
hERG WT inh: inhibitors of human wildtype KCNH2 potassium channel. U2OS, BacMam KCNH2, thallium flux FluxOr; active compounds read low. Q12809. activity change, % at 1.84 µM. 340,000 tested, 0.37% active;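 active means maximum activity change below -70%; inconclusive means maximum activity change between -70% and -50%; inactive means maximum activity change above -50%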
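U2OS cells transduced with wild-type KCNH2 virus are loaded with FluxOr dye for 45 min, and thallium flux is measured in kinetic reads before and after stimulation buffer. Rate constants are normalized to DMSO controls.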
KCNH2 3.1 inh: inhibitors of human KCNH2 3.1 potassium channel isoform; U2OS KCNH2 3.1, thallium flux FluxOr; active compounds read low; 340,000 tested, 0.95% active; activity change, % (tested at about 1.8 µM);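 active means maximum activity change below -70%; inconclusive means maximum activity change from -70% to -50%; inactive means maximum activity change above -50%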;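 further: thallium influx rate constant from kinetic fluorescence after stimulation buffer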
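Thallium flux via FluxOr fluorescence (Red40 quencher, 45 min loading) in U2OS cells virally expressing the KCNH2 3.1 isoform (1.77 x 10^8 /mL virus, overnight at 37 C). Rate constants from 2-min kinetic reads post-stimulation, normalised to positive and negative controls.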
A number is an active result; . = inactive; ? = inconclusive; / = not tested or not shown; [ ] = remark or other dose. Most compounds without a hit are left out; they make up all but 1.3% or so of the library. Unless noted, the call rests on the fitted dose curve.

SMILES	Rango complex inh	Rango dissoc inh	hERG WT inh	KCNH2 3.1 inh
COCCn1c(-c2ccc(Br)cc2)csc1=Nc1cccnc1	.	.	.	-79.5
O=C(NCCCCNC(=O)C1CCCC1)C1CCCC1	.	.	-264.5	.
O=C(CCN1CCCCC1)N1CCc2c([nH]c3ccccc23)C1c1cccnc1 (centres undefined)	.	.	?	-72.5
O=C(O)c1nc(NCCc2ccccc2)ncc1Cl	.	.	-112.7	-179.7
O=C(O)c1nc(NCc2ccccc2)ncc1Cl	.	.	/	.
Cc1cc(C)cc(NC(=O)C(c2ccccc2)N2CCN(CC(=O)NC3CC3)CC2)c1 (centres undefined)	.	.	.	.
O=C(NC(CC(=O)N1CCN(c2ccccc2O)CC1)c1ccccc1)c1ccccc1Cl (centres undefined)	.	.	.	.
O=C(NC(CC(=O)N1CCN(c2ccc([N+](=O)[O-])cc2)CC1)c1ccccc1)c1ccccc1Cl (centres undefined)	?	.	-117.0	-106.8
CCc1ccc(-c2cc(C)no2)cc1S(=O)(=O)NC(C)Cc1ccco1 (centres undefined)	.	?	.	.
CCCOc1cc(N(CC)CC)ccc1/C=C(/C#N)c1nc2ccc(C)cc2[nH]1	?	?	.	.
CCN(CC)c1ccc(/C=C(/C#N)c2nc3ccc(C)cc3[nH]2)c(OC(C)C)c1	?	?	-70.3	?
COc1cccc(CNC(=O)CCC2CCCN(C(=O)CCn3cncn3)C2)c1 (centres undefined)	.	.	.	-94.3
COc1cccc(CNC(=O)CCC2CCCN(C(=O)CCC(F)(F)F)C2)c1 (centres undefined)	.	.	.	.
Oc1ccc(/C=N/NC(=S)Nc2cccnc2)c(O)c1	?	?	-175.9	-137.4
Oc1ccc(/C=N/NC(=S)Nc2cccnc2)c(O)c1O	?	.	.	.
CC(=O)c1ccc(N(CC(=O)NCCc2ccccc2)C(=O)c2csnn2)cc1	.	.	.	.
c1ccc2c(C3=NNC(=NC4CCCCC4)SC3)c[nH]c2c1	.	.	.	-86.5
Cc1cc(NC(=O)c2ccc(Cl)cc2)n(CCOC(=O)c2ccc(Cl)cc2)n1	.	.	-98.1	.
O=C1NC[C@H](Cc2ccccc2)N(CC2CCN(CCc3ccccc3)CC2)C1=O	.	.	.	.
O=C1NC[C@H](Cc2ccccc2)N(CC2CCN(CCCC3CCCC3)CC2)C1=O	.	.	-130.2	-80.1
CC(C)C[C@H]1CNC(=S)N1CC1CCN(CCCC2CCCCC2)CC1	.	.	.	-71.7
O=C1NC[C@H](Cc2ccccc2)N(CC2CCN(CCc3ccc(-c4ccccc4)cc3)CC2)C1=O	.	.	.	-92.8
CCc1ccc(-c2nc(CS(=O)CC(=O)NCc3ccco3)c(C)o2)cc1 (centres undefined)	.	.	.	.
Cc1c(N=C2Nc3cccc4cccc2c34)c(=O)n(-c2ccccc2)n1C	?	2.59µM	.	.
O=C(NCCc1ccccc1)C1CCCN(S(=O)(=O)c2cccnc2)C1 (centres undefined)	.	.	-253.9	.
SMILES	Rango complex inh	Rango dissoc inh	hERG WT inh	KCNH2 3.1 inh
CSc1ccc(S(=O)(=O)NCc2ccc(C)cc2)cc1	.	.	.	-78.2
Cc1ccc(S(=O)(=O)NCc2ccccc2)cc1	.	.	.	.
CCOC(=O)C(Sc1cc(-c2ccccc2)nc2ncnn12)C(C)=O (centres undefined)	?	11.6µM	.	.
Cc1ccc(S(=O)(=O)N(CC(=O)N(C(C)C)C(C)C)C(=O)N2CCN(C)CC2)cc1	.	.	.	.
Cc1ccc2c(c1C)-c1c(ccc(C)c1C)C(=O)C2=O	29.1µM	.	.	.
Cc1ccc(CC#N)c(-c2c(CC#N)ccc(C)c2C)c1C	/	/	.	.
NS(=O)(=O)c1ccc(N2CCN(CCOc3ccc(Cl)cc3)CC2)nc1	.	.	.	-94.7
NS(=O)(=O)c1ccc(N2CCN(S(=O)(=O)Cc3ccccc3)CC2)nc1	.	.	.	.
COc1ccc(C2(C)NC(=O)N(CC(=O)c3cc(C)n(C4CC4)c3C)C2=O)cc1OC (centres undefined)	.	.	.	.
CC1(C)CCC(=O)N2CC[C@H]3C[C@H](OC(=O)Nc4ccccc4)C[C@@H]1[C@H]32	.	.	.	.
CC1(C)CCC(=O)N2CC[C@H]3C[C@H](OC(=O)Nc4ccc5c(c4)OCO5)C[C@@H]1[C@H]32	.	.	.	-135.4
Nc1ccccc1Nc1cc(-c2cccc(Cl)c2)nn1-c1ccccc1	.	.	.	.
Nc1ccccc1Nc1c(F)c(F)nc(F)c1Cl	.	.	.	-72.5
O=C1/C(=C/C=C/c2ccco2)SC(=S)N1c1ccc(O)cc1	.	.	.	.
CC(C)C(C(=O)O)N1C(=O)/C(=C/C=C/c2ccco2)SC1=S (centres undefined)	?	0.0052µM	.	.
CCOC(=O)CN1C(=O)N[C@@H](c2ccccc2)[C@H](C(C)=O)[C@H]1C	.	.	.	-82.4
CCOC(=O)CN1C(=O)N[C@@H](c2ccccc2)[C@@H](C(=O)OC)[C@H]1C	.	.	.	.
N#CCC(=O)Nc1ccc(C(=O)OCC(=O)NC2CCCc3ccccc32)cc1 (centres undefined)	.	.	.	.
CC(=O)Nc1ccc(SCC(=O)NC(=O)c2ccc(S(=O)(=O)N(C)C)cc2)cc1	.	.	-94.2	.
CN(C)S(=O)(=O)c1ccc(C(=O)NC(=O)CSc2ccccc2)cc1	?	.	.	.
CC(=O)c1cccc(-c2ccc3c(=O)[nH]c(Nc4ccccc4)cc3c2)c1	?	11.6µM[inhibitor]	.	.
C#CCOCCOCCOCCNc1nc(N2CCN(C(=O)CCCCCCCCCCNC(=O)[C@H](CCCCN)n3cc(C)nn3)CC2)nc(N2CCN(C(=O)CCCCCCCCCCNC(=O)[C@H](CCCN=C(N)N)n3cc(C[C@@H](C)CC)nn3)CC2)n1	.	?	.	.
C#CCOCCOCCOCCNc1nc(N2CCN(C(=O)C([C@@H](C)O)n3cc([C@@H](N)CCCCN)nn3)CC2)nc(N2CCN(C(=O)[C@H](CCCCN)n3cc([C@@H](N)[C@H](C)CC)nn3)CC2)n1 (some centres undefined)	.	.	.	.
C#CCOCCOCCOCCNc1nc(N2CCN(C(=O)CCCCCCCCCCNC(=O)[C@H](CCCCN)n3cc(C[C@@H](C)CC)nn3)CC2)nc(N2CCN(C(=O)CCCCCCCCCCNC(=O)[C@H](CCCN=C(N)N)n3cc(C[C@@H](C)CC)nn3)CC2)n1	65.1µM	?	.	.
C#CCOCCOCCOCCNc1nc(N2CCN(C(=O)C([C@@H](C)O)n3cc([C@@H](N)CCCCN)nn3)CC2)nc(N2CCN(C(=O)[C@H](CCCN=C(N)N)n3cc(C(N)[C@@H](C)CC)nn3)CC2)n1 (some centres undefined)	51.7µM	.	.	.
COc1ccccc1NOC(=O)CCOc1ccccc1	.	.	.	.
